One experiment deals with SERT (Homo sapiens, UniProt P31645). Nature of the experiment: Receptor binding, SERT. The following applies: @ 100 nM.
In the next experiment the target is D2 (Homo sapiens, UniProt P14416). Nature of the experiment: Receptor binding, D2. Conditions: @ 100 nM.

Amino acid sequences for entries named in this document (tags omitted). Residues count along the entry.
UniProt P31645, whole entry: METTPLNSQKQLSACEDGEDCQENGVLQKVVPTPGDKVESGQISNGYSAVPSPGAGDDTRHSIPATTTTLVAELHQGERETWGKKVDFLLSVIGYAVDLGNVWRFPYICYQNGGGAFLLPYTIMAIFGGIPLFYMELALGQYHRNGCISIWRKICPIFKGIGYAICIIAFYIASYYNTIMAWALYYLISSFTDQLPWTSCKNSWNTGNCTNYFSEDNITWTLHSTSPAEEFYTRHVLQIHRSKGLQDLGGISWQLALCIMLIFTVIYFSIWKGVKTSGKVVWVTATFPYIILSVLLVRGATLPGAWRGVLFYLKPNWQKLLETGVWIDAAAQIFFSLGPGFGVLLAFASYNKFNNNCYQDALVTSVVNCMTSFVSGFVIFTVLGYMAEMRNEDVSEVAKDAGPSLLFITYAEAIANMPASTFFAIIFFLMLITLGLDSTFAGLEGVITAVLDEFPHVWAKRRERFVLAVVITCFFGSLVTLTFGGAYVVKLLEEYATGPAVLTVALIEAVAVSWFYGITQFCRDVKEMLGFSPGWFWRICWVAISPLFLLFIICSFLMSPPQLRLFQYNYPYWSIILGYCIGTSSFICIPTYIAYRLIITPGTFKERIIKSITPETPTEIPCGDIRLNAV
UniProt P14416, 1-414 isoform 2: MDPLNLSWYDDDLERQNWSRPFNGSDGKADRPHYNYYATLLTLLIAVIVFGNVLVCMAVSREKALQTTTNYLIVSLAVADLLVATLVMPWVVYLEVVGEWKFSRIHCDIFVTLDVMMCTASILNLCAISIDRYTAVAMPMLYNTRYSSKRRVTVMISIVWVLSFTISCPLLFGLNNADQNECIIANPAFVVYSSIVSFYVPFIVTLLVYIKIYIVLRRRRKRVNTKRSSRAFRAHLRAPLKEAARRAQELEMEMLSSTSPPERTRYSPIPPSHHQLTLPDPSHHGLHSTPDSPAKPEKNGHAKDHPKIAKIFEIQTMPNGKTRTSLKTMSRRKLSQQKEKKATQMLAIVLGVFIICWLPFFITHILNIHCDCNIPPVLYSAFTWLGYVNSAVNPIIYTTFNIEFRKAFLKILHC

Compound `O=C1CN2c3c(cccc3[C@@H]3CN(CCCOc4ccc(F)cc4O)CC[C@@H]32)N1` gave a maximum inhibition at SERT of 5% @.
In turn, `O=C1CN2c3c(cccc3[C@@H]3CN(CCCOc4ccc(F)c(O)c4)CC[C@@H]32)N1` yielded a maximum inhibition on D2 of 0% @.

(Values after US12331052B2, “Organic compounds” (INTRA-CELLULAR THERAPIES, INC., priority 2018, dated 2025).)
